From US20260382624A1, “PHARMACEUTICAL COMPOSITIONS COMPRISING MELOXICAM” (published 2026)

Test system: migraine patients
Test: Example 1 Phase 3 trial: treatment-emergent adverse events
Details: N = 441 meloxicam/rizatriptan, 434 rizatriptan, 433 meloxicam

CN(C)CCc1c[nH]c2ccc(Cn3cncn3)cc12
Any Treatment-Emergent Adverse Event (number of subjects): 67 number of subjects
Dizziness (% of subjects): (2.1%)
Dizziness (number of subjects): 9 number of subjects
Nausea (% of subjects): (4.8%)
Nausea (number of subjects): 21 number of subjects
Somnolence (% of subjects): (2.1%)
Somnolence (number of subjects): 9 number of subjects
Any Treatment-Emergent Adverse Event (% of subjects) (placebo (6.0%)): (15.4%)
